Data published in patent publication US9988392B2, “7-beta-alkyl analogs of orvinols” (dated 2018).

By UniProt entry, the sequences of proteins in these tests, tags left out.
UniProt P35372, whole entry: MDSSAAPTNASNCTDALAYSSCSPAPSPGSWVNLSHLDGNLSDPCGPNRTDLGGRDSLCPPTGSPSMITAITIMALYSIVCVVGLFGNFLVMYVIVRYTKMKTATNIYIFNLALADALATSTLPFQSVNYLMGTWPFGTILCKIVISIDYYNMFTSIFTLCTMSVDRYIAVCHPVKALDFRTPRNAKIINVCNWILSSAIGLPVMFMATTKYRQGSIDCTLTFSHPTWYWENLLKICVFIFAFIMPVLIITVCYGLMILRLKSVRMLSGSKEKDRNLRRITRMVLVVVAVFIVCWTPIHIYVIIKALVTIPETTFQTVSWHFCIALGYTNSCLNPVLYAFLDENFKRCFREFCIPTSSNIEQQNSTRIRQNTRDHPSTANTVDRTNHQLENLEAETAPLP
UniProt P41145, whole entry: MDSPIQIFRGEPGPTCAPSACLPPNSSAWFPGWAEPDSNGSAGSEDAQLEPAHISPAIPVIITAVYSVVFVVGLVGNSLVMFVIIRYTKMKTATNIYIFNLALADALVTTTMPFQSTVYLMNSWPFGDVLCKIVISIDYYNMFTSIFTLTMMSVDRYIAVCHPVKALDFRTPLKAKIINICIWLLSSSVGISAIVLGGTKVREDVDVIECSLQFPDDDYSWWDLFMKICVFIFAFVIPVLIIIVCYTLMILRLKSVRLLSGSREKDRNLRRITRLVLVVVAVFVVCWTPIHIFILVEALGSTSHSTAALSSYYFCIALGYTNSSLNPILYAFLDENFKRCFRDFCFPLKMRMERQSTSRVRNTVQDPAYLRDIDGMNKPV

Columns and labels:
[1] = target: T1, μ-opioid receptor (Homo sapiens (Human), UniProt P35372); assay: μ-opioid receptor [35S]GTPγS functional assay, HEK-293 cells; details: for μ Emax (%): maximal effect relative to DAMGO, HEK-293 cells; for EC50: read-out: μ EC50, μ GTP EC50, membranes from HEK-293 cells
[2] = target: κ-opioid receptor (Homo sapiens (Human), UniProt P41145); assay: κ-opioid receptor [35S]GTPγS functional assay, U-2 OS cells; details: for κ Emax (%): maximal effect relative to U69,593, U-2 OS cells; for EC50: read-out: κ EC50, κ GTP EC50, membranes from U-2 OS cells
[3] = target: T1, μ-opioid receptor; assay: μ-opioid receptor [35S]GTPγS functional assay, U-2 OS cells; details: for μ Emax (%): maximal effect relative to DAMGO, U-2 OS cells; for EC50: read-out: μ EC50, μ GTP EC50, membranes from U-2 OS cells

Row | Structure (SMILES) | μ Emax (%) [1] | EC50 [1] | κ Emax (%) [2] | EC50 [2] | μ Emax (%) [3] | EC50 [3]
1 | CO[C@]12CC[C@@]3(C[C@]1(C)COCc1cc4ccccc4s1)[C@H]1Cc4ccc(O)c5c4[C@@]3(CCN1CC1CC1)C2O5 (stereo partly drawn) | 26.0 ± 3.51% | 13400 nM | 73.3 ± 3.67% | 0.27 nM | 43.7 ± 1.67% | 0.14 nM
2 | COc1ccc2c3c1O[C@H]1[C@@]4(OC)CC[C@@]5(C[C@]4(C)COCc4cc6ccccc6s4)[C@@H](C2)N(CC2CC2)CC[C@]315 | 10.0 ± 0.58% | 14.6 nM | – | – | – | –
3 | COc1ccc2c3c1OC1[C@@]4(OC)CC[C@@]5(C[C@]4(C)COCc4ccoc4)[C@@H](C2)N(CC2CC2)CC[C@]315 (stereo partly drawn) | 20.7 ± 0.33% | 15.1 nM | – | – | – | –
4 | COC12CC[C@@]3(C[C@]1(C)COCc1ccccc1)[C@H]1Cc4ccc(O)c5c4[C@@]3(CCN1CC1CC1)[C@H]2O5 | 31.3 ± 5.24% | – | 103.0 ± 5.69% | 0.047 nM | 89.7 ± 1.33% | 0.064 nM
5 | COc1ccc2c3c1O[C@H]1C4(OC)CC[C@@]5(C[C@]4(C)COCc4ccccc4)[C@@H](C2)N(CC2CC2)CC[C@]315 | 43.8 ± 4.40% | 57.7 nM | 107.0 ± 0.58% | 0.085 nM | 88.0 ± 1.29% | 8.81 nM
